Experiment [1] addresses Delta-type opioid receptor (Homo sapiens, UniProt P41143). In words: Displacement of [3H]DPDPE from human cloned delta opioid receptor. (Loss of bound radioactivity is the signal in a displacement assay; it reports binding, not function.)
The target of experiment [2] is T1, Kappa-type opioid receptor (Homo sapiens, UniProt P41145). In words: Displacement of [3H]U-69593 from human cloned kappa opioid receptor.
Experiment [3] concerns the target T1, Kappa-type opioid receptor. Description: Agonist activity at human kappa opioid receptor expressed in CHO cells assessed as stimulation of [35S]GTP-gamma-S binding. A general note: Binding of GTPγS marks nucleotide exchange on a G protein.
Another experiment has as its target Mu-type opioid receptor (UniProt P35372+P41143). In words: Agonist activity at human delta opioid receptor expressed in CHO cells assessed as stimulation of [35S]GTP-gamma-S binding.

Sequences of proteins named here, by UniProt entry; tags and fusion partners are left off.
UniProt P41143, whole entry: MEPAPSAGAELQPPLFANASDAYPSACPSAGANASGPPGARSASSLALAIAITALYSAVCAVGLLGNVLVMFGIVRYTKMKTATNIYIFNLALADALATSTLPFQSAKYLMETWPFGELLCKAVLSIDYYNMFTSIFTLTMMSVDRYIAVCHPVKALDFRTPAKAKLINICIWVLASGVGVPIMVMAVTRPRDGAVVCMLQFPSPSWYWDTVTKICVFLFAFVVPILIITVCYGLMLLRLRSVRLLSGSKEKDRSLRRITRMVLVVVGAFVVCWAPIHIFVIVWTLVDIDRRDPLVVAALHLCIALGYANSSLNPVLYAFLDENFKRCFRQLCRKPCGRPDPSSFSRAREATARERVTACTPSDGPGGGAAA
UniProt P41145, whole entry: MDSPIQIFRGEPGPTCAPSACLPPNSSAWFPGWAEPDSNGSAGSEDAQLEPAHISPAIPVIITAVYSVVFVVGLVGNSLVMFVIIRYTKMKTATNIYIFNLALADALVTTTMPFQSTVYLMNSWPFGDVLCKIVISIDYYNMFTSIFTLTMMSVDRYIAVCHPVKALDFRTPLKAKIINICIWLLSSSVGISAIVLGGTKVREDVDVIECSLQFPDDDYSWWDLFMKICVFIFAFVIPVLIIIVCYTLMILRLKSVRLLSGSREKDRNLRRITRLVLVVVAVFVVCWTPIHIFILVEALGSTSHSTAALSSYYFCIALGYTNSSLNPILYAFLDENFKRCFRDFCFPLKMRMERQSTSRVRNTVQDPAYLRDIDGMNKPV

SMILES strings stand for the structures.

One may read the Ki as the equilibrium dissociation constant of an inhibitor or competing ligand from its target. A low value points to tighter binding. Usually EC50 stands for the concentration needed to bring the measured effect to its halfway point. Regarding `COc1ccc2c3c1O[C@H]1[C@]4(OC)CC[C@@]5(C[C@@H]4CNC/C=C/c4ccc(Cl)cc4)[C@@H](C2)N(C)CC[C@]315`, the figures for the inhibitory constant (Ki) in experiment [1] and in experiment [2] were 742 nM and 67.9 nM, respectively. For the same compound, the EC50 in experiment [3] was 233 nM.

For `COc1ccc2c3c1O[C@H]1[C@]4(OC)CC[C@@]5(C[C@@H]4CNC(=O)/C=C/c4ccccc4)[C@@H](C2)N(C)CC[C@]315`, the Ki was 86.4 nM in experiment [1] and 23.7 nM in experiment [2]. Further, in experiment [3], the EC50 was 131 nM.

On to `COc1ccc2c3c1O[C@H]1[C@]4(OC)CC[C@@]5(C[C@@H]4CNC(=O)/C=C/c4ccc(Cl)cc4)[C@@H](C2)N(C)CC[C@]315`, for which the inhibitory constant (Ki) worked out at 289 nM in experiment [1] and 155 nM in experiment [2].

In the case of `COc1ccc2c3c1O[C@H]1[C@]4(OC)CC[C@@]5(C[C@@H]4CNC(=O)/C=C/c4ccccc4[N+](=O)[O-])[C@@H](C2)N(C)CC[C@]315`, the results for the Ki in experiment [1] and in experiment [2] were 111 nM and 29.8 nM, respectively. Further, the EC50 in experiment [3] is 285 nM.

For the compound `COc1ccc2c3c1O[C@H]1[C@]4(OC)CC[C@@]5(C[C@@H]4CNC(=O)/C=C/c4ccccc4C)[C@@H](C2)N(C)CC[C@]315`, the results for the inhibitory constant (Ki) in experiment [1] and in experiment [2] were 65.7 nM and 21 nM, respectively. Besides, the 50% effective concentration (EC50) in experiment [3] came to 74.4 nM.

As to `CO[C@@]12C=C[C@@]3([C@@H]4CN(C(=O)/C=C/c5ccc(C)cc5)C[C@@H]41)[C@H]1Cc4ccc(O)c5c4[C@@]3(CCN1C)[C@H]2O5`, the values for the Ki in experiment [1] and in experiment [2] were 4.83 nM and 1.41 nM, respectively. For the same compound, the values for the half-maximal effective concentration (EC50) (at Mu-type opioid receptor; in experiment [3]) were 14.4 nM and 3.33 nM, respectively.

Regarding `CO[C@@]12C=C[C@@]3([C@@H]4CN(C(=O)/C=C/c5ccccc5C)C[C@@H]41)[C@H]1Cc4ccc(O)c5c4[C@@]3(CCN1C)[C@H]2O5`, the figures for the Ki in experiment [1] and in experiment [2] were 2.36 nM and 0.52 nM, respectively. The values for the EC50 (on Mu-type opioid receptor; in experiment [3]) were 1.8 nM and 3.95 nM, respectively.

On to `CO[C@@]12CC[C@@]3(C[C@@H]1CNC/C=C/c1ccccc1)[C@H]1Cc4ccc(O)c5c4[C@@]3(CCN1C)[C@H]2O5`, for which the Ki in experiment [1] was found to be 38.6 nM; in experiment [2] it was 6.6 nM. For the same compound, the EC50 at Mu-type opioid receptor was 26.2 nM; in experiment [3], 1.78 nM.

Consider `CO[C@@]12CC[C@@]3(C[C@@H]1CNC(=O)/C=C/c1ccccc1Cl)[C@H]1Cc4ccc(O)c5c4[C@@]3(CCN1C)[C@H]2O5`, for which the inhibition constant Ki was determined as 7.59 nM in experiment [1] and 1.64 nM in experiment [2]. Further, the EC50 in experiment [3] came to 3.52 nM.

As to `COc1ccc2c3c1O[C@H]1[C@]4(OC)CC[C@@]5(C[C@@H]4CNC(=O)/C=C/c4ccc([N+](=O)[O-])cc4)[C@@H](C2)N(C)CC[C@]315`, the inhibition constant Ki in experiment [1] is 133 nM; in experiment [2], 58 nM. For the same compound, the EC50 in experiment [3] stood at 133 nM.

`COc1ccc(/C=C/C(=O)NC[C@H]2C[C@@]34CC[C@@]2(OC)[C@@H]2Oc5c(OC)ccc6c5[C@@]23CCN(C)[C@@H]4C6)cc1`: the figures for the Ki in experiment [1] and in experiment [2] were 322 nM and 109 nM, respectively. In addition, the EC50 in experiment [3] is 680 nM.

In the case of `CO[C@@]12CC[C@@]3(C[C@@H]1CNC(=O)/C=C/c1ccc([N+](=O)[O-])cc1)[C@H]1Cc4ccc(O)c5c4[C@@]3(CCN1C)[C@H]2O5`, the inhibition constant (Ki) in experiment [1] is 5.38 nM; in experiment [2] it was 1.72 nM. Also, the EC50 in experiment [3] stood at 7.49 nM.

For the compound `CO[C@@]12CC[C@@]3(C[C@@H]1CNC(=O)/C=C/c1ccc(Cl)cc1)[C@H]1Cc4ccc(O)c5c4[C@@]3(CCN1C)[C@H]2O5`, the Ki in experiment [1] came out at 8 nM; in experiment [2], 1.85 nM. In addition, the EC50 on Mu-type opioid receptor turned out to be 35.4 nM; in experiment [3], 8.62 nM.

Turning to `COc1ccc2c3c1O[C@H]1[C@]4(OC)CC[C@@]5(C[C@@H]4CNC(=O)/C=C/c4ccc(C)cc4)[C@@H](C2)N(C)CC[C@]315`, the figures for the inhibition constant Ki in experiment [1] and in experiment [2] were 246 nM and 159 nM, respectively. Also, the EC50 in experiment [3] was found to be 290 nM.

`CO[C@@]12CC[C@@]3(C[C@@H]1CNC(=O)/C=C/c1ccccc1)[C@H]1Cc4ccc(O)c5c4[C@@]3(CCN1C)[C@H]2O5`: the results for the Ki in experiment [1] and in experiment [2] were 11.1 nM and 5.3 nM, respectively. In addition, the figures for the concentration for a half-maximal effect (EC50) (at Mu-type opioid receptor; in experiment [3]) were 59.2 nM and 41.7 nM, respectively.

For the compound `CO[C@@]12CC[C@@]3(C[C@@H]1CNC(=O)/C=C/c1ccc(C)cc1)[C@H]1Cc4ccc(O)c5c4[C@@]3(CCN1C)[C@H]2O5`, the results for the Ki in experiment [1] and in experiment [2] were 6.53 nM and 3.11 nM, respectively. Besides, the EC50 in experiment [3] is 9.88 nM.

As for `COc1ccc2c3c1O[C@H]1[C@]4(OC)CC[C@@]5(C[C@@H]4CNC/C=C/c4ccccc4)[C@@H](C2)N(C)CC[C@]315`, the Ki in experiment [1] was 395 nM; in experiment [2], 26.4 nM. Moreover, the EC50 in experiment [3] was 106 nM.

Consider `COc1ccc2c3c1O[C@H]1[C@]4(OC)CC[C@@]5(C[C@@H]4CNC(=O)/C=C/c4ccccc4Cl)[C@@H](C2)N(C)CC[C@]315`, for which the Ki in experiment [1] stood at 94.1 nM; in experiment [2], 22.2 nM. Also, the EC50 is 106 nM on Mu-type opioid receptor and 56.7 nM in experiment [3].

For `CO[C@@]12CC[C@@]3(C[C@@H]1CNC(=O)/C=C/c1ccccc1C)[C@H]1Cc4ccc(O)c5c4[C@@]3(CCN1C)[C@H]2O5`, the Ki in experiment [1] was 3.41 nM; in experiment [2], 1.82 nM.

With `COc1ccccc1/C=C/C(=O)NC[C@H]1C[C@@]23CC[C@@]1(OC)[C@@H]1Oc4c(OC)ccc5c4[C@@]12CCN(C)[C@@H]3C5`, the Ki was found to be 87.9 nM in experiment [1] and 44.7 nM in experiment [2]. The EC50 in experiment [3] was 159 nM.

These data come from ChEMBL document CHEMBL1148829, “Cinnamoyl derivatives of 7alpha-aminomethyl-6,14-endo-ethanotetrahydrothebaine and 7alpha-aminomethyl-6,14-endo-ethanotetrahydrooripavine and related opioid ligands” (2007).
